Consider one substance from patent publication US12365761B2, “Biodegradable ultra-pH sensitive polymers” (priority 2019, dated 2025).

Data set [1] deals with HEK-Blue™ IL-2 reporter cells. The experiment in a line: IL-2 function in HEK-Blue IL-2 reporter cells (SEAP). The following applies: 24 h incubation, SEAP at 630 nm. The class given is cell-based. The method, then: The IL-2 function was investigated using HEK-Blue™ IL-2 reporter cells, which are designed to monitor the activation of the JAK-STAT pathway induced by IL-2. Briefly, cells were rinsed by pre-warmed PBS and detached from the flask to prepare a cell suspension at ˜280,000 cells/mL. […] The samples were incubated with 180 μL of cell suspension per well at 37° C. in a CO2 incubator (IL-2 concentration: 200, 50, 10, 2, 0.5, 0.2, 0.05, 0.01 ng/mL; […] The plate was incubated at 37° C. incubator for 1 h and then SEAP levels were determined using a spectrophotometer at 630 nm.

Data set [2] is described as follows: body weight during IL-2 therapy.

“free IL-2: human recombinant IL-2 protein, a T cell growth factor”: the “EC50 of IL-2 function” value in data set [1] is 0.015 µg/mL. Moreover, the body weight change entry in data set [2] (i.t. injection day 1 and 5, within 11 days) is listed as “slightly increased”; in data set [2] (i.v. injection day 1 and 5, within 11 days), “some temporal loss”.
